This is an account of results in patent publication US20250333410A1, “COMPOUND FOR INHIBITING OR DEGRADING BCL6 AND USE THEREOF IN PHARMACEUTICS” (XIZANG HAISCO PHARMACEUTICAL CO., LTD., priority 2022, published 2025).

By UniProt entry, the sequences of proteins in these tests, tags left out.
UniProt Q12809, whole entry: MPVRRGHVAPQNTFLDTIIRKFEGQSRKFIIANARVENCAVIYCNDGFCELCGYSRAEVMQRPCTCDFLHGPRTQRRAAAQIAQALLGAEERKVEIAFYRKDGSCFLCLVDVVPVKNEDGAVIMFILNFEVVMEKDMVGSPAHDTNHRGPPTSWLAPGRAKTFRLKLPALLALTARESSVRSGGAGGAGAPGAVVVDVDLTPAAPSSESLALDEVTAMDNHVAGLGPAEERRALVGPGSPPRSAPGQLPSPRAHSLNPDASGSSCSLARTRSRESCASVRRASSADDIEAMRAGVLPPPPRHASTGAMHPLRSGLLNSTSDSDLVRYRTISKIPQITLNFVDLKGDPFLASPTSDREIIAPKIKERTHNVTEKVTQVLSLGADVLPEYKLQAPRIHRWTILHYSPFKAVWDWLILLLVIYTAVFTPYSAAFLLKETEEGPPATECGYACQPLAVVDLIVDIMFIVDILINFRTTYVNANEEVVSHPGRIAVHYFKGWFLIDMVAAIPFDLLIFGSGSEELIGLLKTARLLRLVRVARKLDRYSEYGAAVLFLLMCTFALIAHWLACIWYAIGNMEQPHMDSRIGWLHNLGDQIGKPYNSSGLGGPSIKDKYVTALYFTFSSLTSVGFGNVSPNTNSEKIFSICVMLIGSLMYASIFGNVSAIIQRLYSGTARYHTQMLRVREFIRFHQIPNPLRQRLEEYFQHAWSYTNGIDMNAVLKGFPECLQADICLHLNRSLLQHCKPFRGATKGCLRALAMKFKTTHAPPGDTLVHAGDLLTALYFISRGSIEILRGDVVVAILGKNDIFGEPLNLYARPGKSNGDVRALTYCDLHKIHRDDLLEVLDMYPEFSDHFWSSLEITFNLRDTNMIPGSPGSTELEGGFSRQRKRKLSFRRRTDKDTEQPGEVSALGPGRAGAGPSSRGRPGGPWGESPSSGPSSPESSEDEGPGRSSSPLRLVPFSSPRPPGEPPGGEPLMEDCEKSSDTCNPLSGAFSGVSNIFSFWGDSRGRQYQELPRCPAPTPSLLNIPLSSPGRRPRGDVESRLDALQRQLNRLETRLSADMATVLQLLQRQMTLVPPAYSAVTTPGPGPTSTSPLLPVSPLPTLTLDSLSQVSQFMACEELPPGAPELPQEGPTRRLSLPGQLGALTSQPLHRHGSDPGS

Data set [1] concerns the target T1, Bcl6 (Homo sapiens (Human), UniProt P41182). As to the kind of experiment: Bcl-6 protein degradation experiment in Farage cells. The class given is cell-based.
In data set [2] the target is hERG potassium ion channel (Homo sapiens (Human), UniProt Q12809). The experiment in a line: Test for hERG potassium ion channel (manual patch-clamp, CHO cells). The following applies: read-out: IC50 of inhibitory effects on hERG potassium channel current; CHO cells stably expressing hERG, whole cell patch-clamp; tested form: TFA. Background: Block of hERG is tested as a sign of cardiac risk.

Data set [3] is described as follows: Pharmacokinetic test in mice. To be noted: i.g. 5 mg/kg, tested form: TFA; for AUC0-t: mice plasma.
Data set [4] can be described thus: Pharmacokinetic test in rats. The following applies: rats plasma, i.g. 5 mg/kg; tested form: TFA.
Data set [5] has as its target T1, Bcl6. As to the kind of experiment: Bcl-6 protein degradation experiment in OCI-LY1 cells. The following applies: read-out: Bcl6 DC50, 24 hours, tested form: TFA.
Where [6] appears, read: read-out: Bcl6 DC50, 24 hours, tested form: TFA.

Structures are written as SMILES. A value given as a limit tells only on which side of the number the result lay.

One may read the DC50 as the concentration at which degradation of the target reaches its halfway point. Regarding `CNC(=O)COc1cc2cc(Nc3nc(N4CCN(CC5CCN(c6ccc(C7CCC(=O)NC7=O)cc6)CC5)CC4)ncc3Cl)ccc2n(C2CC2)c1=O` (stereo not shown), the half-maximal degradation concentration (DC50) at Bcl6 [1] (setting [6]) is under 10 nM.

As a reminder, the IC50 is the point on the concentration scale where inhibition reaches its midpoint. Regarding `CCn1c(=O)c(OCC(=O)NC)cc2cc(Nc3nc(N4CCC(CN5CCn6c(cc7cc(C8CCC(=O)NC8=O)c(F)cc76)C5)CC4)ncc3Cl)ccc21` (stereo not shown), at Bcl6 [1] (setting [6]), the half-maximal degradation concentration (DC50) is under 10 nM. Also, the IC50 in data set [2] was over 40000 nM. `CNC(=O)COc1cc2cc(Nc3nc(N4CCC(CN5CCN6c7cc(F)c(C8CCC(=O)NC8=O)cc7CC[C@H]6C5)CC4)ncc3Cl)ccc2n(C(C)C)c1=O` (single isomer, unassigned): the half-maximal degradation concentration (DC50) is under 10 nM at Bcl6 [1] (read-out: Bcl6 DC50, 24 hours) and under 10 nM on Bcl6 [1] (setting [6]). On to `CNC(=O)COc1cc2cc(Nc3nc(N4CCC(CN5CCN6c7cc(F)c(C8CCC(=O)NC8=O)cc7CC[C@H]6C5)CC4)ncc3Cl)ccc2n(C)c1=O` (stereo partly shown), for which, at Bcl6 [1] (setting [6]), the DC50 is under 10 nM. Also, the AUC0-t in data set [3] is over 1000 ng·h/mL. Further, the IC50 in data set [2] was over 30000 nM. In data set [4], `[2H]C([2H])([2H])NC(=O)COc1cc2cc(Nc3nc(N4CCC(CN5CCN6c7cc(F)c(C8CCC(=O)NC8=O)cc7CC[C@@H]6C5)CC4)ncc3Cl)ccc2n(C(C)C)c1=O` (stereo partly shown) gave an AUC0-t of over 1000 ng·h/mL. Also, on Bcl6 [1] (setting [6]), the 50% degradation concentration (DC50) was under 10 nM. With `CNC(=O)COc1cc2cc(Nc3nc(N4CCC(CN5CCN6c7ccc(C8CCC(=O)NC8=O)cc7NC(=O)[C@@H]6C5)CC4)ncc3Cl)ccc2n(C)c1=O` (stereo partly shown), at Bcl6 [1] (setting [6]), the 50% degradation concentration (DC50) was under 10 nM. Same read-out and setting: the same measure for `CNC(=O)COc1cc2cc(Nc3nc(N4CC[C@@H](O[C@H]5C[C@H](N6CCN7c8cc(F)c(C9CCC(=O)NC9=O)cc8CC[C@@H]7C6)C5)[C@@H](F)C4)ncc3Cl)ccc2n(C(C)C)c1=O` (stereo partly shown): under 10 nM. For the compound `CNC(=O)COc1cc2cc(Nc3nc(N4CCC(CN5CCN6c7ccc(C8CCC(=O)NC8=O)cc7NC(=O)[C@H]6C5)CC4)ncc3Cl)ccc2n(C)c1=O` (stereo partly shown), the 50% degradation concentration (DC50) at Bcl6 [5] was under 100 nM.

For `CNC(=O)COc1cc2cc(Nc3nc(N4C[C@H]5CC(N6CCN7c8cc(F)c(C9CCC(=O)NC9=O)cc8CC[C@H]7C6)C[C@H]5C4)ncc3Cl)ccc2n(C(C)C)c1=O` (stereo partly shown), the half-maximal degradation concentration (DC50) at Bcl6 [1] (setting [6]) is under 10 nM. For `CNC(=O)COc1cc2cc(Nc3nc(N4CCN(CC5CCN(c6ccc(C7CCC(=O)NC7=O)cc6)CC5)CC4)ncc3Cl)ccc2n(CC2CC2)c1=O` (stereo not shown), the 50% degradation concentration (DC50) on Bcl6 [1] (setting [6]) is under 10 nM.

For the compound `CNC(=O)COc1cc2cc(Nc3nc(N4CCC(CN5CCN6c7cc(F)c(C8CCC(=O)NC8=O)cc7CC[C@@H]6C5)CC4)ncc3Cl)ccc2n(C)c1=O` (stereo partly shown), the half-maximal degradation concentration (DC50) at Bcl6 [1] (setting [6]) was under 10 nM. This compound also had an AUC0-t in data set [3] of over 1000 ng·h/mL. As to `CNC(=O)COc1cc2cc(Nc3nc(N4CCC(O[C@H]5C[C@H](N6CCN7c8cc(F)c(C9CCC(=O)NC9=O)cc8CC[C@H]7C6)C5)C(F)(F)C4)ncc3Cl)ccc2n(C(C)C)c1=O` (single isomer, unassigned), the 50% degradation concentration (DC50) on Bcl6 [1] (setting [6]) was under 10 nM.

Regarding `CNC(=O)COc1cc2cc(Nc3nc(N4CCN(CC5CCN(c6cc(F)c(C7CCC(=O)NC7=O)c(F)c6)CC5)CC4)ncc3Cl)ccc2n(C)c1=O` (stereo not shown), the DC50 at Bcl6 [1] (setting [6]) is under 10 nM. The AUC0-t in data set [3] was over 1000 ng·h/mL. Also, the F in data set [3] (mice) is listed as over 50%. As to `CNC(=O)COc1cc2cc(Nc3nc(N4CCC(CN5CCN6c7ccc(C8CCC(=O)NC8=O)cc7CCC6C5)CC4)ncc3Cl)ccc2n(C)c1=O` (single isomer, unassigned), the half-maximal degradation concentration (DC50) at Bcl6 [1] (setting [6]) is under 10 nM. Same read-out and setting: the same measure for `CNC(=O)COc1cc2cc(Nc3nc(N4C[C@H]5CC(N6CCN7c8cc(F)c(C9CCC(=O)NC9=O)cc8CC[C@@H]7C6)C[C@H]5C4)ncc3Cl)ccc2n(C(C)C)c1=O` (stereo partly shown): under 10 nM.

As for `CNC(=O)COc1cc2cc(Nc3nc(N4CCC(CN5CCN6c7ccc(N8CCC(=O)NC8=O)cc7CCC6C5)CC4)ncc3Cl)ccc2n(C)c1=O` (stereo not shown), the DC50 on Bcl6 [1] (setting [6]) is under 10 nM.

As to `C#CCn1c(=O)c(OCC(=O)NC)cc2cc(Nc3nc(N4CCN(CC5CCN(c6ccc(C7CCC(=O)NC7=O)cc6)CC5)CC4)ncc3Cl)ccc21` (stereo not shown), the DC50 at Bcl6 [1] (setting [6]) is under 10 nM.

`CC#CCn1c(=O)c(OCC(=O)NC)cc2cc(Nc3nc(N4CCN(CC5CCN(c6ccc(C7CCC(=O)NC7=O)cc6)CC5)CC4)ncc3Cl)ccc21` (stereo not shown): the DC50 at Bcl6 [1] (setting [6]) is under 10 nM. The same measure, in the same setting: the same measure for `CNC(=O)COc1cc2cc(Nc3nc(N4CCC(CN5CCN6c7ccc(C8CCC(=O)NC8=O)cc7N(C)C(=O)[C@@H]6C5)CC4)ncc3Cl)ccc2n(C)c1=O` (stereo partly shown): under 10 nM; for `CNC(=O)COc1cc2cc(Nc3nc(N4CC[C@@H](O[C@H]5C[C@H](N6CCN7c8cc(F)c(C9CCC(=O)NC9=O)cc8CC[C@H]7C6)C5)[C@@H](F)C4)ncc3Cl)ccc2n(C(C)C)c1=O` (stereo partly shown): under 10 nM.
